Data published in publication PMC9604483, “Crystal Structure of CYP3A4 Complexed with Fluorol Identifies the Substrate Access Channel as a High-Affinity Ligand Binding Site” (International Journal of Molecular Sciences, 2022).

Chains of the proteins cited; added tags and fusions are not shown. A line that says so, or that is headed by a name, gives the form on record, which may keep a tag or linker.
UniProt P08684, with tags, fused parts or gaps: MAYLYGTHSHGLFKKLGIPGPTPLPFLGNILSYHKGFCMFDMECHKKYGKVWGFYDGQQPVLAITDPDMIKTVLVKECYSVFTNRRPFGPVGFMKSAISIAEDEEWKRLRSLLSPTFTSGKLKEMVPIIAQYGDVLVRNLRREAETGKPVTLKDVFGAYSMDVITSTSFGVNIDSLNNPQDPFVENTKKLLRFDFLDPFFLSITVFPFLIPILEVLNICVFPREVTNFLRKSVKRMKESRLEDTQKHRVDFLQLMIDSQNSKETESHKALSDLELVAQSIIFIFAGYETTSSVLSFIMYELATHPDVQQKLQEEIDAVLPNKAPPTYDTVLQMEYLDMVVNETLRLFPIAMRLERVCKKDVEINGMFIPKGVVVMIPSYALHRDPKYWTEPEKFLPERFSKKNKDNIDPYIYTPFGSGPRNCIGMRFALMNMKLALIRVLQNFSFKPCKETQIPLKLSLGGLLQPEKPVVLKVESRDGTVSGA

Target: T1, WT CYP3A4 (Homo sapiens, UniProt P08684)
T1 construct: made in house
Experiment: Equilibrium absorbance titrations of CYP3A4 with progesterone
Assay type: binding
Settings: 2 μM WT CYP3A4

## CC(=O)[C@H]1CC[C@H]2[C@@H]3CCC4=CC(=O)CC[C@]4(C)[C@H]3CC[C@]12C [progesterone]
  Hill coefficient (nH): 1.56
